This experiment deals with Prostaglandin G/H synthase 1 (Homo sapiens, UniProt P23219).

Amino acid sequences for entries named in this document (tags omitted).
UniProt P23219, whole entry: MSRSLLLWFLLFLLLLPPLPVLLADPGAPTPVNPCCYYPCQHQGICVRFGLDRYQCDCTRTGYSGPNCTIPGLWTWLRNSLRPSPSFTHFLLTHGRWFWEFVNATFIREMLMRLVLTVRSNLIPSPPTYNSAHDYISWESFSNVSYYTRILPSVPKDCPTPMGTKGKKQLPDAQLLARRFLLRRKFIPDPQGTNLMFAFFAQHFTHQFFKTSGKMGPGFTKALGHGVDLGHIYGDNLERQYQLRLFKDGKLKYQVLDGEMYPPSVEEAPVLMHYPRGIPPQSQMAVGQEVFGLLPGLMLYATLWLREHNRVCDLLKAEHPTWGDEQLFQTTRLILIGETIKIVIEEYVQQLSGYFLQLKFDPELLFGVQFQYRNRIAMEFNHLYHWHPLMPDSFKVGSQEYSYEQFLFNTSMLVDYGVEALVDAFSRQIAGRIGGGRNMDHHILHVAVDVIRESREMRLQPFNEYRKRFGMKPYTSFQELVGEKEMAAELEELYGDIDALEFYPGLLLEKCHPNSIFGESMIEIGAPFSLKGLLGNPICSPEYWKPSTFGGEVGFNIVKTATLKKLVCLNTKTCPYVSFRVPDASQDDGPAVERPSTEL

SMILES strings stand for the structures.

The term IC50 denotes the point on the concentration scale where inhibition reaches its midpoint. A lower IC50 goes with greater potency. With `CCC(CC)COc1c(Cl)cc2c(c1Cl)OC(C(F)(F)F)C(C(=O)O)=C2` (stereo unspecified), the IC50 was less than 140 nM.
